For one compound, inhibition results are on record in US20220218680A1, “TREATMENTS OF HEREDITARY ANGIOEDEMA” (KALVISTA PHARMACEUTICALS LIMITED, priority 2019, published 2022).

Chains of the proteins cited; added tags and fusions are not shown. Residues count along the entry.
UniProt P03952, 20-390 partner limits assumed: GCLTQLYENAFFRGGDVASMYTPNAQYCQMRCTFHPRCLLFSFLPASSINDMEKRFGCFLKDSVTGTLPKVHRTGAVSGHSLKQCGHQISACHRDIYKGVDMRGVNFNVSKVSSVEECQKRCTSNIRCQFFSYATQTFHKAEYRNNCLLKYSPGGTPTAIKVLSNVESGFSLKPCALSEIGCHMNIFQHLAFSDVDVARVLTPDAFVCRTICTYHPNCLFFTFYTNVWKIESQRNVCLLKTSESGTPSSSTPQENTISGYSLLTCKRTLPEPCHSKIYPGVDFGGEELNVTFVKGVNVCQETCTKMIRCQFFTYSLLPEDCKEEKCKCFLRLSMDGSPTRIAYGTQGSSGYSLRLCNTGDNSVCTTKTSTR
UniProt P03952, 391-638 limits assumed: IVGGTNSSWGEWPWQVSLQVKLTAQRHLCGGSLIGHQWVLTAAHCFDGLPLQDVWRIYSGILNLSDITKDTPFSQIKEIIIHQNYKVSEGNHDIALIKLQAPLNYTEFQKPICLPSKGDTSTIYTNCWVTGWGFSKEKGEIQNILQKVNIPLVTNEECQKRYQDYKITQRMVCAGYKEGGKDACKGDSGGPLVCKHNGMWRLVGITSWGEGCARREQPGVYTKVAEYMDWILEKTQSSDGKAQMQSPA

Bounds are passed on as bounds.

The target of this assay is T1, Plasma Kallikrein (Homo sapiens, UniProt P03952).
T1 construct: PD measurements were determined in dextran sulfate (DXS) stimulated undiluted plasma using a fluorogenic enzyme assay; from tissue; host or cells: undiluted plasma of healthy male volunteers after oral dosing, stimulated ex vivo with dextran sulfate
In words: Phase 1 SAD / food effect: ex vivo PKa catalytic activity in DXS-stimulated undiluted plasma. To be noted: 600 mg tablet, fed state, by 30 minutes. The protocol: PD measurements were determined in dextran sulfate (DXS) stimulated undiluted plasma using a fluorogenic enzyme assay and capillary based HK cleavage immunoassay.
The time until appearance of detectable amidolytic enzyme activity in DXS-stimulated plasma (lag time) was calculated from the catalytic activity assay. The detection sensitivity of the rate of catalytic activity in plasma based on using a Spark (Tecan) fluorimeter is a fluorescence increase to reach 1ΔF unit/sec.

For the compound `COCc1nn(Cc2ccc(Cn3ccccc3=O)cc2)cc1C(=O)NCc1nccc(OC)c1F` [compound of Formula A, N-[(3-fluoro-4-methoxypyridin-2-yl)methyl]-3-(methoxymethyl)-1-({4-[(2-oxopyridin-1-yl)methyl]phenyl}methyl)pyrazole-4-carboxamide], the inhibition (in general, the share of the control response that was lost under treatment) at 600 mg is > 90%.
